Experimental data reported in publication PMC11350787, “Antimicrobial Properties and Cytotoxicity of LL-37-Derived Synthetic Peptides to Treat Orthopedic Infections” (Antibiotics, 2024).
Where a name gives a salt, the structure may show the parent alone.

System: red blood cells (RBC)
Test: Hemolytic activity assessment
Format: cell-based
Settings: 2.3-300 µg/mL tested; cut off ≤1%; human RBC, 1 h 37 °C
Experimental: The pellet containing erythrocytes was washed 3 times in PBS centrifuging at 700× g for 8 min at RT. Finally, 40 µL of pellet containing red blood cells (RBC) was diluted in 8 mL of PBS, obtaining a 0.5% v/v RBC suspension.
The 96-well V plate was incubated at 37 °C for 1 h, then centrifuged at 1000× g for 10 min, and the supernatant (60 µL) was transferred to a 96-well flat bottom microplate for the absorption analysis on a microplate reader at 414 nm. The positive control (PC, 100% hemolysis) consisted of 0.1% Triton-X100 in PBS (pH 7.4), while PBS alone served as the negative control (NC, 0% hemolysis). Each hemolysis activity assessment test was carried out in two replicates and repeated three times.
NCs and PCs were averaged, then results were normalized to the average of PC and NC according to the following formula: % Hemolysis = (Abs treated − Abs NC/Abs PC − Abs NC) × 100. The hemolytic activity was also tested on TFA to exclude any toxicity caused by the buffer.

With `O=C(O)C(F)(F)F` [Na-TFA, Trifluoroacetic acid, reference compound] the “Hemolytic activity (in words)” value was “No hemolytic activity”.
